Data taken from US12084523B2, “Ubiquitin high affinity cyclic peptides and methods of use thereof” (TECHNION RESEARCH & DEVELOPMENT FOUNDATION LIMITED, priority 2018, dated 2024).
Like-named read-outs stand apart in the source and are kept apart here.

Key:
[1] = target: T1, K48-Ub2 (Homo sapiens, UniProt P0CG47); experiment: SPR binding of cyclic peptides to K48-linked di-ubiquitin
T1 construct: solid phase peptide synthesis of Ub monomers (modified as required); made in house; host or cells: total chemical synthesis (SPPS, isopeptide ligation, desulfurization)

[2] = target: T2, ^K48Ub4 (Homo sapiens, UniProt P0CG47); experiment: SPR binding of cyclic peptides to K48-linked tetra-ubiquitin
T2 construct: solid phase peptide synthesis of Ub monomers (modified as required); made in house
Experimental: Surface Plasmon Resonance (SPR)
The interactions between cyclic peptides: U2i, U2ii, U4i, U4ix and Ub1, ^K48Ub2 and ^K48Ub4, were determined using BIACORE T100 instrument (GE healthcare) equipped with a biotin CAPture kit Series S chip. The buffer in all experiments contained 50 mM HEPES, pH 7.3, 150 mM NaCl, 0.05% Tween20, 2 mM DTT with 0.2% DMSO. Biotinylated Ub1, ^K48Ub2 and ^K48Ub4 were loaded to approximately equal molar amounts on the SPR chip, and various concentrations of cyclic peptides were flowed over at […] for 120 sec, before initiation of dissociation by flowing buffer over at […] for further 700 sec. Traces were fit to the simplest, two-state model for binding. Association was fit to a single exponential assuming pseudo-first order conditions, whereas the dissociation trace was fit to single exponential plus a drift term. Finally, due to the poor quality of the traces for U4ix binding ^K48Ub2, the amplitude of the association kinetic trace at different concentrations of peptide was fit to estimate the lower bound for KD.
To test the binding and specificity of the Ub2i, Ub2ii, Ub4i, Ub4ix, Ub4_a and Ub4_e cyclic peptides, each were prepared by chemical synthesis for Surface Plasmon Resonance (SPR) analysis (FIGS. 1E and 29). Each peptide was flowed over Ub1, ^K48Ub2 and […] immobilized on SPR chips. […]

[3] = Table 2, K48-Ub2, SPR, anchor M* as given
[4] = read-out: KD / binding affinity, text and figure legend, K48-Ub2

Substance | Kd [1, 3] [nM] | Kd [1, 4] [nM] | also measured
M*GWFDDLYLFVAY-CG [J08_pClBz] | 234 |  | 
M*GWFDDLYWFVAY-CG [J08_mClBz_L8W] |  | 1.2 | 
M*GWFDDEYLFVAY-CG [J08_mClBz_L6E] |  | 5 | 
M*GWFDNLYWYITH-CG [J02_mClBz] | 16 |  | 
M*GWFDDEYWFYAY-CG [mClBz_L6E_L8W_V10Y] | 7.2 |  | Kd ([1]; Table 3, SPR-measured affinities of J08 analogue peptides, K48-Ub2): 7.6 nM
*FQLWOHAIALCG [Ub4_e] |  |  | Kd ([1]; SPR, target ^K48Ub2): > 20000 nM
*GWFDDLYLYVAYC [J08_mClBz_F9Y] |  | 0.58 | Kd ([1]; read-out: dimeric and/or tetrameric Ub binding affinity KD, range stated in the description, 'as exemplified'): 0.55 to 0.65 nM
M*-WYDREYYYLGYGCG [J01_mClBz] | 141 |  | 
M*GWFDNLYWYITH-CG [J02_pClBz] | 48 |  | 
M*GWFDDLYLFVAY-CG [J08_mClBz] |  | 10 | 
M*GWFDDLYLFYAY-CG [mClBz_V10Y] | 5.6 |  | 
*FQYWOYATGVCG [Ub4_a] |  |  | Kd ([1]; SPR, target ^K48Ub2): > 900 nM; Kd ([1]; read-out: dimeric Ub binding affinity KD, range stated in the description, 'as exemplified'): > 900 nM; Kd ([2]; SPR, target ^K48Ub4): 8 nM; Kd ([2]; read-out: tetrameric Ub binding affinity KD, range stated in the description, 'as exemplified'): 6 to 10 nM
